ALDH1A1 inh = blocks purified human ALDH1A1 activity. P00352. Purified ALDH1A1, NADH fluorescence, propionaldehyde substrate. Potency, µM (top dose mostly 75.3 µM), for inactives: at the top dose activity, negative = inhibition, actives largely listed as inhibitors. hit rate 7.3% among 220,000; active means well fitted inhibition curve with a large enough effect, not every such curve was filed as active; inconclusive means small, poorly fitted or top-dose-only effect, or another doubt; inactive means no such curve, though single readings can be large or run the other way;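 further: potency means the concentration at half of the fitted maximal effect; plate controls were no enzyme wells and a reference inhibitor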
G9a inh = G9a (human) methyltransferase inhibition | Q96KQ7 | AID 504332 | G9a H3K9 monomethylation, AlphaScreen, 2 h | Potency, µM (series often up to 102 µM), for inactives: at the top dose activity, negative = inhibition, usual class: inhibitors | hit rate 8.8% among 350,000; further: potency means the concentration at half of the fitted maximal effect; on the % scale 0 is the no-effect control and ±100 the full control effect; nearly all actives have a fitted effect of over 75% in size
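Step 1: enzyme (final 20 nM) with compound, 15 min RT. Step 2: substrate peptide 500 nM and SAM 20 uM, 2 h RT. Step 3: anti-H3K9me1 antibody and AlphaScreen beads, 10 min, then plate read.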
miR-21 reporter = raises the signal of a miR-21 reporter | HeLa miR-21 FLuc reporter, luciferase, 48 h | Potency, µM (highest dose often 38.3 µM), for inactives: at the highest dose reporter change, positive = more light | 340,000 tested, under 10 active | AID 2288; active = well fitted rising curve with a large enough effect; inconclusive = small, poorly fitted or top-dose-only effect; inactive = no such curve, though single readings can be large or run the other way;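 also: % of control where 0% means no effect; miR-21 action dims this reporter so a rising signal means less miR-21 action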
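Compounds were titrated across several concentrations (up to approximately 40 uM) and incubated 48 hours with HeLa miR-21-FLuc reporter cells (miR-21 target sequence downstream of FLuc, endogenous miR-21). Readout was firefly luciferase luminescence after lytic detection reagent.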
KDM4E inh = blocks human JMJD2E demethylase activity | hit rate 1.6% among 230,000 | B2RXH2 | JMJD2E catalytic domain, FDH-coupled NADH fluorescence (FDH is formaldehyde dehydrogenase) | Potency, µM (series often up to 57.1 µM), inactives show top-dose activity change, negative = inhibition, actives largely listed as inhibitors; active means well fitted inhibition curve with a large enough effect, not every such curve was filed as active; inconclusive means small, poorly fitted or top-dose-only effect, or another doubt; inactive means no such curve, though single readings can be large or run the other way;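 further: potency means the concentration at half of the fitted maximal effect; 0% = wells with enzyme and -100% = buffer wells without enzyme; nearly all actives have a fitted effect of over 50% in size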
Sfp inh = inhibitors of Bacillus subtilis Sfp phosphopantetheinyl transferase. Q9F4F7. Biochemical Sfp PPTase activity, qHTS. Potency, µM, inactives show max response, negative = inhibition, most hits filed as inhibitors. 3.5% of 310,000 active. AID 1490; active = well fitted inhibition curve with a large enough effect; inconclusive = small, poorly fitted or top-dose-only effect, or another doubt; inactive = no such curve, though single readings can be large or run the other way;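 also: the enzyme is Sfp with the accession as filed and its product quenches rhodamine fluorescence; potency is read from the fitted curve at half-maximal effect; 0% = enzyme reaction without inhibitor and -100% = no enzyme wells; top concentration of the series not given in the record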
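Reaction rates are the 30-min fluorescence difference (ex 525, em 598 nm) in wells containing 15 nM Sfp, 5 uM rhodamine-CoA and 12.5 uM BHQ-2-YbbR at pH 7.6 with 10 mM MgCl2.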
Lamin A splicing = LMNA splicing modulation | HeLa LMNA splicing GFP/RFP minigene ratio, 48 h | Potency, µM (doses to about 46.1 µM), for inactives: top-dose ratio change, negative = inhibition, hits mostly inhibitors | hit rate 0.01% among 200,000 | AID 1487; active means well fitted inhibition curve with a large enough effect in the signal ratio, with a control signal flat, not every such curve was filed as active; inconclusive means small, poorly fitted or top-dose-only effect, or effect the other way, or a change in a side signal; the % refers to the signal ratio; further: potency means the concentration at half of the fitted maximal effect; on the % scale 0 is the no-effect control and ±100 the full control effect
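S3 HeLa cells stably expressing lamin A-EGFP splicing minigene plus DsRed2, 600 cells/well, 48 h compound exposure at 37C. Laser-scanning cytometry; analysed as GFP (500-530 nm)/RFP (575-640 nm) total intensity ratio; 0.5% DMSO vehicle.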
* marks the source's active call; other numbers are inactive results; ? = inconclusive; · = no result; [ ] = another dose, or the depositor's remark. Most compounds without a hit are left out; they make up all but 13% or so of the library. Unless noted, the call rests on the fitted dose curve; in most records, active means well fitted curve in the direction sought with a large enough effect; inconclusive means small, poorly fitted or top-dose-only effect, or another doubt; inactive means no such curve, though single readings can be large; an effect the other way counts as inactive or inconclusive.

nr | structure | ALDH1A1 inh | G9a inh | miR-21 reporter | KDM4E inh | Sfp inh | Lamin A splicing
1 | CCCCn1c(SCC(=O)c2ccc(OC)c(OC)c2)nc2cc(S(N)(=O)=O)ccc21 | ? | 50µM* | 0% | -13% | -20% | 13%
2 | CCCCn1c(SCC(=O)c2ccc(OCC)cc2)nc2cc(S(N)(=O)=O)ccc21 | 35µM* | ? | -10% | 2% | 1% | 18%
3 | CCCCn1c(SCC(=O)NCc2ccco2)nc2cc(S(N)(=O)=O)ccc21 | 14µM* | ? | -1% | 1% | ? | 1%
4 | COc1cccc(NC(=O)C2CCC(CNS(=O)(=O)c3ccc4c(c3)CCCC(=O)N4)CC2)c1 (stereo unspecified) | · | 6%[59 µM] | 1% | · | · | ·
5 | COC(=O)c1ccc(CN(c2ccc(C(=O)O)c(O)c2)S(=O)(=O)c2ccc(Cl)c([N+](=O)[O-])c2)cc1 | · | 12%[2.33 µM] | 8% | · | -7% | ·
6 | CC1(C)Oc2ccc3ccc(=O)oc3c2/C(=C/O)C1=O | · | 45µM* | -5% | · | 0% | ·
7 | CC1(C)Oc2ccc3ccc(=O)oc3c2/C(=C/Nc2ccccc2)C1=O | 6% | 71µM* | -1% | -13% | -2% | -5%
8 | Cn1c(/C(C#N)=N/O)nc2ccccc21 | ? | ? | -14% | -20% | -6% | -5%
9 | CCn1c(/C(C#N)=N/O)nc2ccccc21 | 20µM* | -11%[59 µM] | -28% | 0% | -30% | 7%
10 | COc1ccc(-c2nc(CS(=O)(=O)CC(=O)Nc3cccc(C(C)=O)c3)c(C)o2)cc1 | · | 20µM* | 0% | · | 0% | ·
11 | COc1cccc(-c2nc(CS(=O)(=O)CC(=O)Nc3cccc(C(C)=O)c3)c(C)o2)c1 | · | 14% | 0% | · | 12% | ·
12 | Cc1oc(-c2cccc(Cl)c2)nc1CS(=O)(=O)CC(=O)NC1CC1 | · | 50µM* | -4% | · | 10% | ·
13 | C#CCCCO/N=C1/C[C@@H](O)[C@@H](O)[C@@H]2[C@@H]3C(=O)N(c4cccc(Oc5ccccc5)c4)C(=O)[C@H]3CC[C@H]12 | 15%[13.5 µM] | · | · | · | 18% | ·
14 | Cc1ccc(C(=O)COC(=O)c2cc(-c3ccccc3)nc3ccccc23)cc1C | · | 33%[59 µM] | -21% | · | · | ·
15 | C=CCOc1ccc(CN(C)CC(O)COc2cccc3ccccc23)cc1 (stereo unspecified) | · | 40µM* | -7% | · | -12% | ·
16 | O=C(Nc1ccc(F)cc1F)c1csc(-c2ccncc2)n1 | 5% | -21%[59 µM] | -29% | -8% | 9% | -12%[46 µM]
17 | Cc1ccc(C(=O)Nc2cccc(C(F)(F)F)c2)cc1NC(=O)c1csc(-c2ccncc2)n1 | · | -34%[59 µM] | 23% | 0% | 20µM* | ·
18 | O=C(CSc1nnc(-c2cccnc2)n1Cc1ccco1)N1c2ccccc2Sc2ccccc21 | ? | ? | 11% | -4% | 3.5µM* | -14%
19 | c1cncc(CSc2nnc(-c3cccnc3)n2Cc2ccco2)c1 | 2% | 3% | -4% | -2% | 16% | 3%
20 | O=C(CSc1nnc(-c2ccc(Cl)cc2)n1Cc1ccco1)c1cccs1 | ? | ? | -13% | 7% | 22µM* | 1%
21 | COc1ccc(C(=O)CSc2nnc(-c3cnccn3)n2Cc2ccco2)cc1 | ? | ? | -2% | -1% | -25% | -7%
22 | O=C(CSc1nnc(-c2ccncc2)n1Cc1ccco1)c1ccc(Cl)cc1 | ? | ? | 1% | ? | 22µM* | 16%
23 | COc1ccc(C(=O)CSc2nnc(-c3cccnc3)n2Cc2ccco2)cc1 | 0% | 50µM* | -10% | 9% | 0% | 9%
24 | O=C(CCn1c(=O)c2cccn2c2cccnc21)NCc1ccccc1Cl | · | -5%[59 µM] | -3% | · | · | ·
25 | COC(=O)C(CCSC)NC(=O)C1CCN(c2ncnc3c2nc2n3CCCCC2)CC1 (stereo unspecified) | · | 14%[59 µM] | 0% | · | · | 1%[46 µM]
26 | CCN(CC)S(=O)(=O)c1ccc(NC(=O)[C@H](CCSC)N2Cc3ccccc3C2=O)cc1 | · | -27%[59 µM] | 14% | · | · | ·
27 | Cc1ccc(CNC(=O)c2cc(S(=O)(=O)N3CCCCCC3)cn2C)cc1 | · | -1%[59 µM] | 10% | · | · | ?
28 | CC(C)c1ccc(C2c3c(-c4ccccc4O)n[nH]c3C(=O)N2CCc2ccccc2)cc1 (stereo unspecified) | · | 11%[59 µM] | ? | · | · | ·
29 | Cc1ccccc1C(=O)c1c[nH]c(C(=O)N=CN(C)C)c1 | ? | 1% | -3% | -4% | -3% | 17%[46 µM]
30 | Cc1ccccc1C(=O)c1c[nH]c(C(N)=O)c1 | 7.9µM* | 2%[2.33 µM] | -1% | -1% | 11% | 9%
31 | CCc1cccc(C)c1NC(=O)CN1CCN(S(=O)(=O)c2ccc(C(C)(C)C)cc2)CC1 | · | 8%[59 µM] | · | · | · | ·
32 | CC1=NNC(=O)C1CCC(=O)N/N=C/C(Br)=C/c1ccccc1 (stereo unspecified) | ? | 50µM* | -16% | -8% | -13% | ?
33 | CC1=NNC(=O)C1CC(=O)N/N=C/C(Br)=C/c1ccccc1 (stereo unspecified) | · | -2% | 10% | 3% | -16% | ·
34 | C/C(=N\NC(=O)C1=NNC(=O)C1C)c1cccs1 (stereo unspecified) | -2% | 45µM* | -51% | 1% | -27% | -2%[46 µM]
35 | C/C(=N\NC(=O)c1ccncc1)c1cccs1 | 0% | 0%[59 µM] | -35% | 10% | 10% | 2%[46 µM]
36 | CC1C(=O)NN=C1C(=O)N/N=C\C(Br)=C\c1ccccc1 (stereo unspecified) | 5% | -6% | 21% | 0% | 50µM* | ·
37 | COc1ccc(C)cc1NC(=O)C1CCN(S(=O)(=O)c2c(C)noc2/C=C/c2ccco2)CC1 | · | -24%[59 µM] | -4% | · | · | ·
38 | CCN(CC)S(=O)(=O)c1ccc(C(C)NC(=O)Cc2c[nH]c3ccccc23)cc1 (stereo unspecified) | · | 22% | 3% | · | 6% | ·
39 | Cc1ccc(CSCC(=O)N/N=C/c2ccc(OCC(=O)Nc3ccc(C)cc3)cc2)cc1 | -1% | 18µM* | -10% | -1% | -12% | ?
40 | COc1ccc(CSCC(=O)N/N=C/c2ccc(OCC(=O)N3CCCCC3)cc2)cc1 | -5% | -11%[2.33 µM] | -3% | -12% | 11% | 0%
41 | CN(C)c1ccc(NC(=O)CCCc2ccccc2)cc1 | ? | 1.3µM* | -41% | -3% | 22µM* | -2%
42 | COCC(=O)Nc1ccc(N(C)C)cc1 | 7% | 2.5µM* | -26% | -6% | -7% | 10%
43 | Cc1cccc(NC(=O)CCCc2ccccc2)c1 | · | 33% | -67% | · | -2% | ·
44 | CCOC(=O)C(Cc1ccccc1)C(=O)Nc1ccc(N(CC)CC)cc1 (stereo unspecified) | -5% | 3.5µM* | -3% | -12% | -8% | -5%
45 | CCN(CC)c1ccc(NC(=O)COc2ccc(C)cc2)cc1 | 9% | 1.4µM* | -18% | -1% | -10% | 1%
46 | CN(C)c1ccc(NC(=O)COC(=O)CCC(=O)c2ccc(F)cc2)cc1 | 10µM* | 2.5µM* | -1% | -5% | -15% | 8%

Assay outcomes from PubChem.
